# Experimental melting point values from OPERA 2.9

Data: OPERA 2.9 data sets, kmansouri/OPERA on GitHub.

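The OPERA project collected these measurements from public sources as training and test data for property models. A listed value is a point estimate from one report or more. Conditions of the individual experiments are not part of the data. Where a salt, mixture or single isomer is drawn, the source does not say that exactly this form was tested. Unmarked limits or estimates from the upstream databases cannot be ruled out.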

Melting points are in °C. "via" names the databases from which the curators took the value.

The entry for CCOC(=O)c1c(C)[nH]c(C(=O)CCl)c1C [Ethyl 5-(chloroacetyl)-2,4-dimethyl-1H-pyrrole-3-carboxylate] lists melting point 189 °C (via OCHEM). For COc1c(C)cc(N)cc1C [4-methoxy-3,5-dimethylaniline] the data give melting point 63.5 °C (via OCHEM). CNS(=O)(=O)c1ccccc1N [2-amino-N-methylbenzenesulfonamide] has melting point 54 °C (via OCHEM). O=c1cc(CCl)c2cc(O)c(O)cc2o1 [4-(Chloromethyl)-6,7-dihydroxy-2-benzopyrone] is reported with melting point 179 °C (via OCHEM).

NC(=O)Nc1ccc(C(=O)O)cc1 [Benzoic acid, p-ureido-] is reported with melting point 297 °C (via OCHEM). The entry for CC(=O)CS [1-Mercapto-2-propanone] lists melting point 113 °C (via PubChem). Clc1ccc(N2CCOCC2)nn1 [4-(6-chloropyridazin-3-yl)morpholine] is reported with melting point 132 °C (via OCHEM). For Nc1cccc(S(=O)(=O)CCO)c1 [Ethanol, 2-[(3-aminophenyl)sulfonyl]-] the data give melting point 82.35 °C (via eChemPortal).

CCOc1cc(Br)c(C=O)cc1OCC [2-bromo-4,5-diethoxybenzaldehyde] has melting point 71.5 °C (via OCHEM). For C[C@H](CCC(=O)NCCS(=O)(=O)O)[C@H]1CC[C@H]2[C@@H]3[C@H](O)C[C@@H]4C[C@H](O)CC[C@]4(C)[C@H]3C[C@H](O)[C@]12C [Taurocholic acid] the data give melting point 125 °C (via PubChem). O=[N+]([O-])c1cccc(-c2nnc(CCl)o2)c1 [2-(chloromethyl)-5-(3-nitrophenyl)-1,3,4-oxadiazole] is reported with melting point 116 °C (via OCHEM). CC1(C)C2CCC1(CS(=O)(=O)O)C(=O)/C2=C/c1ccc(/C=C2/C(=O)C3(CS(=O)(=O)O)CCC2C3(C)C)cc1 [Ecamsule] is reported with melting point 255 °C (via PubChem).

The entry for Cn1c(N)c(C(=O)CCl)c(=O)[nH]c1=O [6-Amino-5-(chloroacetyl)-1-methylpyrimidine-2,4(1H,3H)-dione] lists melting point 357 °C (via OCHEM). Listed for OCc1c(Cl)nc2sccn12 [(6-Chloroimidazo[2,1-b][1,3]thiazol-5-yl)methanol]: melting point 175 °C (via OCHEM). Listed for N#Cc1ccccc1OCC(=O)O [2-(2-cyanophenoxy)acetic acid]: melting point 183 °C (via OCHEM). For CCN(CC)S(=O)(=O)c1ccc(N)cc1 [Benzenesulfonamide, 4-amino-N,N-diethyl-] the data give melting point 100 °C (via OCHEM).

COc1ccc(C)cc1CC(=O)O [(2-Methoxy-5-methylphenyl)acetic acid] is reported with melting point 132 °C (via OCHEM). Nc1ccc(N2CCOCC2)cc1C(=O)O [2-Amino-5-(4-morpholinyl)benzoic acid] is reported with melting point 236 °C (via OCHEM). For O=C(O)c1cn[nH]n1 [4-Carboxy-1,2,3-triazole] the data give melting point 213 °C (via OCHEM). Nc1ccnn1Cc1cccnc1 [1-(pyridin-3-ylmethyl)-1H-pyrazol-5-amine] has melting point 87 °C (via OCHEM).

Listed for Cn1c(CO)nc2ccccc21 [(1-methyl-1H-benzimidazol-2-yl)methanol]: melting point 145 °C (via OCHEM). O=C(O)C1(c2cccc(Br)c2)CCOCC1 [4-(3-bromophenyl)oxane-4-carboxylic Acid] is reported with melting point 153 °C (via OCHEM). The entry for Cc1ccc(C23CC4CC(CC(C(=O)O)(C4)C2)C3)cc1 [3-(4-Methylphenyl)adamantane-1-carboxylic acid] lists melting point 175 °C (via OCHEM). O=c1cc(CCl)c2c(ccc3ccccc32)o1 [1-(Chloromethyl)-3H-naphtho[2,1-b]pyran-3-one] has melting point 120 °C (via OCHEM).

CC1CCN(c2ccc([N+](=O)[O-])cc2C(=O)O)CC1 [2-(4-methylpiperidin-1-yl)-5-nitrobenzoic acid] is reported with melting point 161 °C (via OCHEM). For Cc1ccccc1CNC(=O)CCl [2-chloro-N-(2-methylbenzyl)acetamide] the data give melting point 106 °C (via OCHEM). CCOC(=O)Cc1cnc(C)nc1Cl [(6-Chloro-2-methyl-5-pyrimidyl)acetic acid, ethyl ester] is reported with melting point 35.5 °C (via PubChem). For OCCNc1ccccn1 [2-(pyridin-2-ylamino)ethanol] the data give melting point 65 °C (via OCHEM).

The entry for Cc1ccc2cc(C(=O)O)[nH]c2c1 [6-Methyl-1H-indole-2-carboxylic acid] lists melting point 210 °C (via OCHEM). Listed for S=c1[nH]c2cc(Br)cnc2[nH]1 [6-Bromo-1,3-dihydro-2H-imidazo[4,5-b]pyridine-2-thione]: melting point 325 °C (via OCHEM). ClCc1coc(-c2ccccc2)n1 [4-chloromethyl-2-phenyl-oxazole] is reported with melting point 53 °C (via OCHEM). The entry for NC(=O)NC1CCCC1 [cyclopentyl-urea] lists melting point 193 °C (via OCHEM).

For COc1ccc2c(c1)NC(=O)C2=O [6-Methoxyisatin] the data give melting point 224 °C (via OCHEM).

A selection of 4 entries from above:

SMILES	name	melting point (°C)	via
CNS(=O)(=O)c1ccccc1N	2-amino-N-methylbenzenesulfonamide	54	OCHEM
Cc1ccc2cc(C(=O)O)[nH]c2c1	6-Methyl-1H-indole-2-carboxylic acid	210	OCHEM
Cc1ccccc1CNC(=O)CCl	2-chloro-N-(2-methylbenzyl)acetamide	106	OCHEM
CC1CCN(c2ccc([N+](=O)[O-])cc2C(=O)O)CC1	2-(4-methylpiperidin-1-yl)-5-nitrobenzoic acid	161	OCHEM